Assay results published in ChEMBL document CHEMBL6153133, “Discovery of Diphenyl Ether Derivatives as Novel BKCa Channel Activators: Structure-Activity Relationship, Cryo-EM Complex Structures, and In Vivo Animal Studies” (J Med Chem, 2025).

The chains behind the UniProt entries cited, without tags or fusion partners.
Calcium-activated potassium channel subunit alpha-1 (Homo sapiens), Q12791, UniProt Q12791, whole entry, looked up, stated change not applied: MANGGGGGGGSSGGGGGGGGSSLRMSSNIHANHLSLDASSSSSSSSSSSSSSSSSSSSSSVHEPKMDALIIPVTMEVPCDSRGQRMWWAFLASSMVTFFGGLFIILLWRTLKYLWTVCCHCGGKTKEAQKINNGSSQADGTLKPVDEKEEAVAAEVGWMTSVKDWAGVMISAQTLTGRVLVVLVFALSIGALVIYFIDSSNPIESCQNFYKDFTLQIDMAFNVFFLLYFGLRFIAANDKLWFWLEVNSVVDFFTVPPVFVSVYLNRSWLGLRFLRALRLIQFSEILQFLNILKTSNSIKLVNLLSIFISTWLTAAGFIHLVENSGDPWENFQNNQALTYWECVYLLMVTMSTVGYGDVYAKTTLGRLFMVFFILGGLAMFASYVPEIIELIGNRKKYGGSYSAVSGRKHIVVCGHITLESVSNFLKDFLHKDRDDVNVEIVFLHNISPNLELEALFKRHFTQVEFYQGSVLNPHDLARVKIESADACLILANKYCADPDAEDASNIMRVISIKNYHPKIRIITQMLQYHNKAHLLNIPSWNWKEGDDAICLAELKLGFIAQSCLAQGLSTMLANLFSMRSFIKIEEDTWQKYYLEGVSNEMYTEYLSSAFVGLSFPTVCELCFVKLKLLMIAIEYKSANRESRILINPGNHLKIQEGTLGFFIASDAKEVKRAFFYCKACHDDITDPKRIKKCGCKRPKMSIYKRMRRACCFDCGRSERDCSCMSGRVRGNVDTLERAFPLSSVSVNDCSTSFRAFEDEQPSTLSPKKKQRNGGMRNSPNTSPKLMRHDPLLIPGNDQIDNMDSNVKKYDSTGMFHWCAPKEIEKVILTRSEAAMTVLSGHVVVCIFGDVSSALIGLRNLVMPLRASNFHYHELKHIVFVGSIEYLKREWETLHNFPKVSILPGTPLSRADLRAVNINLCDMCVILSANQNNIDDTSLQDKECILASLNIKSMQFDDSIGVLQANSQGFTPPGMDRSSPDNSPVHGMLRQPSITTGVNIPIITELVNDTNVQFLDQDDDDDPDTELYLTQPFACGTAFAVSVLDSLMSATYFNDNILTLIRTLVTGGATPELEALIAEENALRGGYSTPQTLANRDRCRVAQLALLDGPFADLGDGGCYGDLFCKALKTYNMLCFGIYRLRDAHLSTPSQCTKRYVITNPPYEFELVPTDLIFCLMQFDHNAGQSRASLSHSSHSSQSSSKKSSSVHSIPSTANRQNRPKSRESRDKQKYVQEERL

How the values were obtained:
Format in all cases: cell-based
Details in all cases: filed as opener, time 980.0 sec
[1] = test system: Calcium-activated potassium channel subunit alpha-1 (Homo sapiens), Q12791 [UNDEFINED MUTATION]; assay: (§1) Activation of hyperactive human BKca channel G803D/N806K mutant transfected in human AD-293 cells assessed as fold change in maximum relative fluorescence value at 0.05 uM preincubated for 15 mins followed by Tl+ stimulus buffer addition and measured after 80 sec by Flexstation3 multimode microplate reader analysis
[2] = test system: Calcium-activated potassium channel subunit alpha-1 (Homo sapiens), Q12791 [UNDEFINED MUTATION]; assay: as §1, with “0.5” for “0.05”
[3] = test system: Calcium-activated potassium channel subunit alpha-1 (Homo sapiens), Q12791 [UNDEFINED MUTATION]; assay: as §1, with “0.3” for “0.05”
[4] = test system: Calcium-activated potassium channel subunit alpha-1 (Homo sapiens), Q12791 [UNDEFINED MUTATION]; assay: as §1, with “3” for “0.05”
[5] = test system: Calcium-activated potassium channel subunit alpha-1 (Homo sapiens), Q12791 [UNDEFINED MUTATION]; assay: as §1, with “1” for “0.05”
[6] = test system: Calcium-activated potassium channel subunit alpha-1 (Homo sapiens), Q12791 [UNDEFINED MUTATION]; assay: as §1, with “0.1” for “0.05”

With `Nc1ccc(Oc2c(F)c(F)c(C(F)(F)F)c(F)c2F)c(O)c1` the fold change (FC) [1] was 2.1, the fold change (FC) [2] was 9.3 and the fold change (FC) [3] was 8.1. The fold change (FC) [4] was 9.2, the fold change (FC) [5] was 9.6 and the fold change (FC) [6] was 3.6.
